Data reported in patent US20260384421A1, “NOVEL COMPOUNDS THAT CAN BE USED AS THERAPEUTIC AGENTS” (published 2026).

Columns and labels:
HCT-116 cells = test: combination treatment activity assay with syrosingopine on HCT-116 cells; settings: compound 10 nM + syrosingopine 10 μM, 2 days
Description: The synergistic or additive activity of a compound falling under general formula (I) was investigated in a combination treatment with the MCT1/MCT4 inhibitor syrosingopine (TargetMol, #TN2252) in a viability assay on MDA-MB-231 cells cultured in D-Glucose-containing RPMI 1640 medium (Fisher Scientific, Gibco™ #72400) supplemented with 10% fetal bovine serum (Fisher Scientific, Gibco™ #A31608) and on HCT-116 cells cultured as described above. The viability assay was performed according to the protocol as described above using alamarBlue® (Bio-Rad Serotec GmbH, BUF012B). To this end, according cells were seeded into 96-well plates (CORNING, #3598) suitable for fluorescence assays at a cell number of 7'000 cells per well for MDA-MB-231 and 7'000 cells per well for HCT-116, and incubated over night at 37 °C and 5% CO2. Then, in a volume of 90 μL medium per well the cells were treated with compounds at a final concentration of 10 nM for the compound of formula (I) and 10 μM for syrosingopine by adding 10 μL per well of a 10× compound working solution or the empty carrier DMSO as control. […] Relative viability values were calculated from the fluorescence intensities as described above. […]

REC-1 cells = test: alamarBlue proliferation assay with REC-1 cells; settings: read-out: Activity on REC-1 (IC50), day 5
Description: These hyperproliferative processes can be benign or malignant and include hyperplasia, neoplasia, cancer and pre-cancerous lesions, and metastases. […] To this end, according cells were seeded into 96-well plates (CORNING #3598) suitable for fluorescence assays at following initial cell numbers: 1000 cells per well for HPEK; 3000 cells per well for MDA-MB-231, 8000 cells per well for ZR-75-30, 1500 cells per well for HCC-1395, 1500 cells per well for HCC-1937, 3000 cells per well for T-47D, 1500 cells per well for JURKAT, 5000 cells per well for RPMI-8402, 9000 cells per well for LOUCY, 1500 cells per well for TANQUE, 9000 cells per well for REC-1, 1000 cells per well for HL-60, 1000 cells per well for NB-4, 9000 cells per well for TT, 2000 cells per well for HeLa, 2000 cells per well for 23132/87, 9000 cells per well for SW-948, 700 cells per well for HCT-116, 1500 cells per well for BHY, 700 cells per well for A-431, 1500 cells per well for HEP-G2, 500 cells per well for NCI-H460, 1000 cells per well for A-549, 1500 cells per well for PANC-1, 2500 cells per well for U-87 MG, 700 cells per well for A-375, 1500 cells per well for RVH-421, 2000 cells per well for SW-1353, 500 cells per well for C2C12, 500 cells per well for LL/2, and 3000 cells per well for CF21.T. In a volume of 90 μL per well of culture medium the cells were treated with compounds at indicated final concentrations by adding 10 μL per well of 10× compound working solutions from 1:100 pre-diluted 1000× compound DMSO stock-solutions in H2O (Water For Injection, WFI, Fisher Scientific, Gibco™ #A12873) or with the empty carrier DMSO (AppliChem, #A3672) at 0.1% v/v as control yielding a final volume of 100 μL per well. […] The readout was taken with a multi-well plate-reader (Tecan Spark®) in the fluorescence mode with applying a filter for excitation at 560 nm (band width 10 nm) and for emission at 590 nm (band width 10 nm). […]

23132/87 cells = test: alamarBlue proliferation assay with 23132/87 cells; settings: read-out: Activity on 23132/87: IC50, RPMI 1640 medium, 10% FBS
Source text: These hyperproliferative processes can be benign or malignant and include hyperplasia, neoplasia, cancer and pre-cancerous lesions, and metastases. The antiproliferative activities of compounds falling under general formula (I) were investigated on human primary epidermal keratinocytes (HPEK) and human, murine and canine cell lines derived from hyperproliferative tissue or different cancer types, including MDA-MB-231, ZR-75-30, HCC-1395, HCC-1937, and T-47D all originating from cancer of the breast, JURKAT, RPMI-8402, LOUCY, TANQUE, REC-1, HL-60, NB-4 all originating from different types of blood cancer including lymphoma and leukemia of T-cells, B-cells and myeloid cells, TT originating from cancer of the neuroendocrine system, HeLa originating from cancer of the cervix, 23132/87, SW-948, and HCT-116 all originating from cancer of the gastrointestinal tract including stomach and colon, BHY originating from cancer of the mucosal epithelium, A-431 originating from cancer of the skin, HEP-G2 originating from cancer of the liver, NCI-H460 and A-549 both originating from cancer of the lung, PANC-1 originating from cancer of the pancreas, U-87 MG originating from cancer of the brain, A-375 and RVH-421 both originating from cancer of melanocytes, SW-1353 originating from cancer of bone-derived chondrocytes, C2C12 a mouse cell line originating from hyperproliferative muscle progenitor cells, LL/2 a mouse cell line originating from cancer of the lung, CF21.T a dog cell line originating from cancer of the connective tissue. To this end, according cells were seeded into 96-well plates (CORNING #3598) suitable for fluorescence assays at following initial cell numbers: 1000 cells per well for HPEK; 3000 cells per well for MDA-MB-231, 8000 cells per well for ZR-75-30, 1500 cells per well for HCC-1395, 1500 cells per well for HCC-1937, 3000 cells per well for T-47D, 1500 cells per well for JURKAT, 5000 cells per well for RPMI-8402, 9000 cells per well for LOUCY, 1500 cells per well for TANQUE, 9000 cells per well for REC-1, 1000 cells per well for HL-60, 1000 cells per well for NB-4, 9000 cells per well for TT, 2000 cells per well for HeLa, 2000 cells per well for 23132/87, 9000 cells per well for SW-948, 700 cells per well for HCT-116, 1500 cells per well for BHY, 700 cells per well for A-431, 1500 cells per well for HEP-G2, 500 cells per well for NCI-H460, 1000 cells per well for A-549, 1500 cells per well for PANC-1, 2500 cells per well for U-87 MG, 700 cells per well for A-375, 1500 cells per well for RVH-421, 2000 cells per well for SW-1353, 500 cells per well for C2C12, 500 cells per well for LL/2, and 3000 cells per well for CF21.T. In a volume of 90 μL per well of culture medium the cells were treated with compounds at indicated final concentrations by adding 10 μL per well of 10× compound working solutions from 1:100 pre-diluted 1000× compound DMSO stock-solutions in H2O (Water For Injection, WFI, Fisher Scientific, Gibco™ #A12873) or with the empty carrier DMSO (AppliChem, #A3672) at 0.1% v/v as control yielding a final volume of 100 μL per well. At day 5 after starting the treatments the cells were subjected to the alamarBlue® Proliferation Assay (Bio-Rad Serotec GmbH, BUF012B) according to the protocol of the manufacturer. The readout was taken with a multi-well plate-reader (Tecan Spark®) in the fluorescence mode with applying a filter for excitation at 560 nm (band width 10 nm) and for emission at 590 nm (band width 10 nm). Treatment for maximum proliferation inhibition with the commercial cytotoxic compound (S)-(+)-camptothecin (Fluorochem #M01564) at a concentration of 10 μM was included on each plate for assay quality control. Some of the test compounds of the present invention may have been obtained and applied as their salt forms.
The assays were performed in duplicate or more replicates of independent single experiments each containing a three- to six-fold replicate for every condition. […]

Compound	Activity as treatment enhancer (additional viability decrease as compared to single treatment with syrosingopine) (HCT-116 cells)	IC50 (REC-1 cells) [µM]	IC50 (23132/87 cells) [µM]
O=C(c1ccc(Oc2ccc(C3CCC4(CC3)OCCO4)cc2CO)cc1)N1CCN(Cc2ccc(Cl)cc2)CC1	viability decrease >25%	≤ 0.2	
COC1CCC(c2ccc(Oc3ccc(C(=O)N4CCN(Cc5ccc(Cl)cn5)CC4)cc3)c(CO)c2)CC1 (stereo not shown)			≤ 5
O=C(c1ccc(Oc2ccc(C3CCC4(CCCC4)CC3)cc2CO)cc1)N1CCN(Cc2ccccc2)CC1		≤ 5	
